Data published in PubChem BioAssay AID368 (University of Pittsburgh Molecular Library Screening Center, 2006).
Only a part is listed here, and it is no random draw. Active and inactive are the calls of the source. Rule as the data show it: active = inhibition above about 50%; inactive = the rest.

By UniProt entry, the sequences of proteins in these tests, tags left out.
UniProt P30305, whole entry: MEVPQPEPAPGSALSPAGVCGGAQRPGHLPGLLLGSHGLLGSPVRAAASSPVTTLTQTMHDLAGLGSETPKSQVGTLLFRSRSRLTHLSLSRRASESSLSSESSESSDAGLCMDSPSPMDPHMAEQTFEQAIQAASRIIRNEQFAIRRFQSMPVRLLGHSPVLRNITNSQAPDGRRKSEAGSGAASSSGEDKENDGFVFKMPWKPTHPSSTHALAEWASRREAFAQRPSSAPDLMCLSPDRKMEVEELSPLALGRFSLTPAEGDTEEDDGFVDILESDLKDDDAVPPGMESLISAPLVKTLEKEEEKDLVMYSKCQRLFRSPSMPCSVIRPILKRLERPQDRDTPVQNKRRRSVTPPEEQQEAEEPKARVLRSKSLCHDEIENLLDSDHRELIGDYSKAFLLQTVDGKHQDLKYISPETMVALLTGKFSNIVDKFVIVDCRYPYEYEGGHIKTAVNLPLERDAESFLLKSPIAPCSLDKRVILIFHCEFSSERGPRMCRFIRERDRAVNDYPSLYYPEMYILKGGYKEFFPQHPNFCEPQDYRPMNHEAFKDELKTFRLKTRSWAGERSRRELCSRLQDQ

Target: M-phase inducer phosphatase 2 (Homo sapiens) (UniProt P30305)
Test: human Cdc25B tyrosine phosphatase blockers – biochemical, OMFP fluorescence, catalytic domain, primary screen (AID 368)
Settings: recombinant Cdc25B, OMFP fluorescence Ex485/Em525; hits give high values;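 compounds tested at 10 µM final in the well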

Row | Compound | inhibition
1 | CN(C)CCOC(=O)C(O)(c1ccccc1)C1CCCCC1 (stereo not drawn) | inactive: -4.85%
2 | CCOP(C)(=S)SCC(=O)NC(C)(CC)C(=O)O (stereo not drawn) | inactive: -4.79%
3 | Cc1ccccc1NP(C)(=O)Nc1ccccc1C | inactive: -13.3%
4 | CP(=O)(Nc1ccc2c(c1)OCCO2)Oc1ccccc1 (stereo not drawn) | inactive: -12.4%
5 | CP(=O)(Nc1ccccc1F)Oc1ccccc1 (stereo not drawn) | inactive: -5.08%
6 | COc1ccccc1OP(C)(=O)Nc1ccc(C)c(C)c1 (stereo not drawn) | inactive: 1.83%
7 | Cc1nc2ccc3ccccc3c2o1.O=[N+]([O-])c1cc([N+](=O)[O-])c(O)c([N+](=O)[O-])c1 | inactive: -1.83%
8 | CP(=O)(Nc1ccccn1)Oc1ccccc1 (stereo not drawn) | inactive: -0.711%
9 | COc1ccccc1OP(C)(=O)Nc1c(C)n(C)n(-c2ccccc2)c1=O (stereo not drawn) | inactive: -9.74%
10 | CP(=O)(Oc1ccccc1)N1CCOC1=O (stereo not drawn) | inactive: -7.95%
11 | CCN(CC)CC(O)COC(=O)C(O)(c1ccccc1)C1CCCCC1 (stereo not drawn) | inactive: 9.07%
12 | CP(=S)(Nn1cnnc1)Oc1ccccc1 (stereo not drawn) | inactive: -2.64%
13 | CP(=O)(NC(=O)Nc1ccccc1)Oc1ccccc1 (stereo not drawn) | inactive: -10.6%
14 | CCOP(C)(=S)SCC(=O)NC(C)C(=O)O (stereo not drawn) | inactive: -12.5%
15 | COc1ccccc1OP(C)(=O)Nc1ccc(C)cc1 (stereo not drawn) | inactive: 0.333%
16 | Cc1ccc(NP(C)(=O)Oc2ccccc2)c(C)c1 (stereo not drawn) | inactive: -7.26%
17 | Cc1ccc(C)c(NP(C)(=O)Oc2ccccc2)c1 (stereo not drawn) | inactive: 2.21%
18 | Cc1nc2ccc3ccccc3c2s1.O=[N+]([O-])c1cc([N+](=O)[O-])c(O)c([N+](=O)[O-])c1 | inactive: 5.19%
